Values quoted from earlier work in article PMC6857671 (Chemical Science, 2019).

Conditions: pH 7.4, acid-labile MMCCH linker; cited from earlier work

trastuzumab-MMCCH-DOX: DOX conjugated to trastuzumab via an acid-labile MMCCH linker (Zhang et al.)
drug release rate at pH 7.4: 25 % per day
